The subject of the test is Ba/F3 cells expressing acquired atypical mutations spanning exons 18-21. The experiment in a line: Ba/F3 cells, acquired atypical mutations, drug sensitivity. To be noted: 72 hours.

Experimental findings from US20260240847A1, “COMPOUNDS WITH ANTI-TUMOR ACTIVITY AGAINST CANCER CELLS BEARING TYROSINE KINASE INHIBITOR RESISTANT EGFR MUTATIONS” (BOARD OF REGENTS, THE UNIVERSITY OF TEXAS SYSTEM, priority 2019, published 2026) are described below.

With `C=CC(=O)Nc1cc(Nc2nccc(-c3cn(C)c4ccccc34)n2)c(OC)cc1N(C)CCN(C)C`, the drug sensitivity/resistance result is “resistance”.
